From patent US10456414B2, “Methods for treating HCV” (priority 2011, dated 2019)

What was measured:
[1] = test system: Huh-7 cells carrying an HCV genotype 1a replicon; details: with 320 nM Compound 10 and the highest concentration of the listed compound
[2] = test system: Huh-7 cells carrying a HCV genotype 1a replicon; experiment: Cytotoxicity combination studies with Compound 4, MacSynergy II
[3] = in combination with Compound 4, mean ± standard deviation

Structure (SMILES): NC(=O)c1ncn([C@@H]2O[C@H](CO)[C@@H](O)[C@H]2O)n1 [Ribavirin, 1-β-D-ribofuranosyl-1H-1,2,4-Triazole-3-carboxamide, reference compound]
- Cytotoxicity at Highest Concentration of Compound Combinations (% inhibition on cell growth) [1]: 14.0 ± 4.4%
- Interaction (cytotoxicity) ([2]; in combination with Compound 4): Additivity (Additivity: ≤25 and >−25 nM^2%)
- Antagonism Volume (cytotoxicity) [2, 3]: −1 ± 2 nM^2%
- Synergy Volume (cytotoxicity) [2, 3]: 4 ± 3 nM^2%
